Test system: testis
Test: Example 2: beagle puppy injected in each testis, testes excised at 30 months
Format: in vivo, beagle dog
Conditions: 0.25 ml per testis, sacrificed at 30 months; control 30 lbs
Description: A beagle puppy weighing 19 lbs at six months of age was injected in each testis with 0.25 ml of a chemical sterilant containing 13.1 mg/ml of zinc as zinc gluconate neutralized by 34.8 mg/ml of l-arginine with the pH adjusted to 7.0 with hydrochloric acid. The injection was into the dorsal cranial portion of the testis as could best be estimated externally.
The treated animal was sacrificed at 30 months of age when he weighed 31 lbs. The testes were excised and each weighed 3.5 g.
A control beagle weighing 18 lbs at six months was housed with the treated animal. This animal was also sacrificed at 30 months. The control dog weighed 30 lbs and each testis weighed 6.8 g. A histological section of the rete testis of the control animal was taken and a light micrograph of the section at 10× is shown in FIG. 2.

zinc gluconate neutralized by arginine
body weight at sacrifice: 31 lbs
